The source made the active and inactive calls. The calls are words filed in the database; no cut-off is given here.
Target: T1, 1,4-dihydroxy-2-naphthoyl-CoA synthase (Mycobacterium tuberculosis) (UniProt P9WNP5)
T1 sequence (whole entry): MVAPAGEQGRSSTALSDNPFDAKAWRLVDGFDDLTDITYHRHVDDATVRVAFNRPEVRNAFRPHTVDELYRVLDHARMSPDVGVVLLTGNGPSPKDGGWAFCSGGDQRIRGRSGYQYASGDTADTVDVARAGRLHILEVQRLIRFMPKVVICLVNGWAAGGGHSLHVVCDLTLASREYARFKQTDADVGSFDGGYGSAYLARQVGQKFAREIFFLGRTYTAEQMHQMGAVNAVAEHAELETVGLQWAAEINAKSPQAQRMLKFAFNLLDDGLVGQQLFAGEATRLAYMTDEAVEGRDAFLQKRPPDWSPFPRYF
Assay: Inhibition of Mycobacterium tuberculosis MenB expressed in Escherichia coli BL21 (DE3) assessed as formation of DHNA-CoA from OSB-CoA at 50 uM by enzyme coupled-assay in presence of Escherichia coli MenE
Conditions: tested as the 2H-labelled form

Compound: C[C@H](NC(CC(=O)c1ccccc1Cl)C(=O)O)c1ccccc1 (stereo partly specified)
- inhibition: Active
